Where “and” joins values, the source holds several entries; their conditions need not be identical. Equal entries are not always repeated. Only a part is listed here, and it is no random draw. Results filed as inconclusive are left out. Calls of active or inactive are those of the source. The call rests on the fitted dose curve; in most records, active means well fitted cell-killing curve with a large enough effect in the repeat runs; inconclusive means weak or mixed curves, or effect the other way; inactive means flat fitted curve, though single readings scatter.
assay: qHTS assay to identify small molecule antagonists of the retinoid acid receptor (RAR) signaling pathway - cell viability counter screen (AID 1159551); settings: C3RL4 cells viability, ATP luminescence (CellTiter-Glo), 6 h; at 42.5 µM (top of the series); further: nearly all actives have a fitted effect of over 35% in size
Source text: U.S. Tox21 Program National Center for Advancing Translational Sciences [NCATS] NIH Chemical Genomics Center [NCGC] U.S. Environmental Protection Agency [EPA] National Institutes of Environmental Health Sciences [NIEHS] National Toxicology Program [NTP] U.S. Food and Drug Administration [FDA] Tox21 Assay Overview: All-trans Retinoic acid (atRA) is the potent natural metabolite of retinol and plays an important role in normal embryonic development and maintenance of cellular phenotype in adult animals. atRA is the activating ligand for the retinoic acid receptors (RARs) which form heterodimers with retinoid X receptors (RXRs) on the retinoic acid response element (RARE). Through activation of the RAR/RXRs nuclear receptors, atRA regulates the transcription of a large number of protein-coding genes and regulatory RNAs. Intracellular levels of atRA are controlled by the retinol signaling pathway (RSP) that regulates the biosynthesis and catabolism of atRA to maintain physiological levels. Chemicals that interfere with the RSP can cause abnormal intracellular levels of atRA and therefore are potential developmental toxicants. To assess compounds for the potential adverse effect on embryonic development through interfering with retinol signaling, a cell-based RARE luciferase reporter gene assay was used. C3RL4 cell line (OARSA/CFSAN/FDA, Laurel, MD) was used to screen Tox21 10K compound library for identifying inhibitors of the RSP. Also cytotoxicity was assessed by determining the viability of cells based on the quantitation of ATP.
Tox21 Assay Protocol Summary: C3RL4 cells were seeded at 1,000/well in 4 uL of assay medium into white solid 1,536-well tissue culture plates (Greiner Bio-One North America Inc. Monroe, NC) using a Multidrop Combi (Thermo Scientific, Waltham, MA) dispenser. After incubation at 37 C and 5% CO2 for an overnight, 23 nL of compounds dissolved in DMSO, positive control or DMSO only were transferred by a Pintool station (Kalypsys, San Diego, CA). One ul of 1 uM (final concentration) of Retinol was added right after the compound addition by using a Flying Reagent Dispenser (FRD) (Aurora Discovery, San Diego, CA). After 6 hr incubation at 37 C and 5% CO2, 5 uL of CellTiter-Glo reagent (Promega Corporation, Madison, WI) was added to each assay plate using an FRD. Luminescence was quantified on a ViewLux plate reader (PerkinElmer, Waltham, MA) after 30 min incubation at room temperature.
On the % scale 0 is the no-effect control and ±100 the full control effect.

| SMILES | activity change, negative = cytotoxicity |
| --- | --- |
| NC(=O)Nc1ccc([As](=O)(O)O)cc1 | inactive: 1.62% |

same assay, conditions: C3RL4 cells viability, ATP luminescence (CellTiter-Glo), 6 h; at 92.4 µM (top of the series)

| SMILES | activity change, negative = cytotoxicity |
| --- | --- |
| NC(=O)Nc1ccc([As](=O)(O)O)cc1 | inactive: -0.117% |

same assay, conditions: C3RL4 cells viability, ATP luminescence (CellTiter-Glo), 6 h; at 92.4 µM (top of the series) unless noted

| SMILES | activity change, negative = cytotoxicity |
| --- | --- |
| COP(=S)(Cl)OC | inactive: -4.55% |
| O=C(Cl)Oc1ccccc1 | inactive: 0.0513% |
| O=P(Cl)(Cl)c1ccccc1 | inactive: 1.31% |
| CCCCC(CC)CO[P+](=O)OCC(CC)CCCC (stereo unspecified) | inactive: 1.98% |
| ClP(Cl)c1ccccc1 | inactive: -2.43% |
| CC(C)CCCCCCCOP(OCCCCCCCC(C)C)Oc1ccccc1 | inactive: -0.281% |
| O=[P+](Oc1ccccc1)Oc1ccccc1 | inactive: 0.638% |
| CCC(C)(OOC(C)(C)C)OOC(C)(C)C | inactive: -0.0644% [at 19 µM] |
| O=[p+]1oc2ccccc2c2ccccc21 (stereo unspecified) | inactive: 4.78% |
| O=C(Cl)OCCOC(=O)Cl | inactive: -2.34% |
| COC(=O)Cl | inactive: -0.643% |
| CCCCOP(OCCCC)OCCCC | inactive: -0.697% |
| CN(C(=O)Cc1ccccc1)[C@H]1CC[C@@]2(CCCO2)C[C@@H]1N1CCCC1 | inactive: -2.53% [at 42.5 µM] |
| CCOC(=O)Cl | inactive: 1.3% |
| CC(C)OP(=S)(OC(C)C)SCCNS(=O)(=O)c1ccccc1 | inactive: 1.15% |
| CN(N=O)C(=N)N[N+](=O)[O-] | inactive: 3.97% |
| O=P(Cl)(Oc1ccccc1)Oc1ccccc1 | inactive: -0.67% |
| Cc1cc([N+](=O)[O-])c(O)c([N+](=O)[O-])c1 | inactive: 1.93% |
| CN(C(=O)Cc1cccc2occc12)[C@H]1CC[C@@]2(CCCO2)C[C@@H]1N1CCCC1 | inactive: -3.71% |
| O=[N+]([O-])c1ccc(S(=O)(=O)O)c([N+](=O)[O-])c1 | inactive: 5.65% |
| CN(C(=O)Cc1ccc(Cl)c(Cl)c1)[C@H]1CC[C@@]2(CCCO2)C[C@@H]1N1CCCC1 | inactive: 0.125% [at 42.5 µM] |
| CCOP(=S)(CC)Sc1ccccc1 (stereo unspecified) | inactive: -7.86% |
| CCNC(C)Cc1ccc2c(c1)OCO2 (stereo unspecified) | inactive: -1.06% |
| CCCCO[P+](=O)OCCCC | inactive: -1.36% and inactive: 0.0887% |

Source: PubChem BioAssay (Tox21)
